Measured values taken from patent US12576127B2, “Fibroblast binding agents and use thereof” (Orionis Biosciences, Inc., priority 2018, dated 2026).

Assays:
HL116-hFAP cells = experiment: Luciferase reporter activity on HL116-hFAP cells; assay type: cell-based, human
HL116 cells = experiment: Luciferase reporter activity on parental HL116 cells; assay type: cell-based; details: parental HL116, 6 hours stimulation

EC50 HL116-FAP (HL116-hFAP cells; HL116-hFAP, 6 hours stimulation, luciferase): 0.09 ng/mL
Substance: Wild type IFN: wild type, untargeted IFNα2
Targeting Index (ratio EC50 HL116/HL116-FAP) (HL116-hFAP cells): 1.2 | EC50 HL116 (HL116 cells): 0.11 ng/mL
